Drawing on patent US9458179B2, “Quinuclidine, 1-azabicyclo[2.2.1]heptane, 1-azabicyclo [3.2.1]octane, and 1-azabicyclo[3.2.2]nonane compounds as alpha-7 nicotinic acetylcholine receptor ligands” (BRISTOL-MYERS SQUIBB COMPANY, priority 2012, dated 2016), this text covers EC50 for one molecule.

Amino acid sequences for entries named in this document (tags omitted). Residues count along the entry.
UniProt Q05941, 23-502 limits assumed: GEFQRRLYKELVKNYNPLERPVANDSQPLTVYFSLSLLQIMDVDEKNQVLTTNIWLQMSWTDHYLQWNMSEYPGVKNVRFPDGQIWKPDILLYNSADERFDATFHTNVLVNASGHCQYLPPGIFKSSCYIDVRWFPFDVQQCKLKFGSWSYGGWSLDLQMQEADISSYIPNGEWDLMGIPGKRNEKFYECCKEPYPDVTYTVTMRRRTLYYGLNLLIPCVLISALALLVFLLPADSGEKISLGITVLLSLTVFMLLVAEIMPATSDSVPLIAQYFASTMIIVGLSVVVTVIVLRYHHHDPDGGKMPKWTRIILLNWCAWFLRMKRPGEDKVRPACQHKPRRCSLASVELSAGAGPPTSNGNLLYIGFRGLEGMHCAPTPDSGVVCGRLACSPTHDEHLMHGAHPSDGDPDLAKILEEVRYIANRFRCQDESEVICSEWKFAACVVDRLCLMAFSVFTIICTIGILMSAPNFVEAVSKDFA

This experiment has as its target α-7 nicotinic ACh receptor ion channel (Rattus norvegicus, UniProt Q05941). Nature of the experiment: Ca2+-sensitive fluorescence-based FLIPR assay of α7 nicotinic receptor channel function (agonist activity). The note with it: read-out: FLIPR α7-HI (EC50), HEK 293 cells, Ca2+ flux, tested form: TFA. The class given is cell-based. In general terms: A change in cytosolic calcium serves as a functional read-out for many receptors and channels.

Like-named read-outs stand apart in the source and are kept apart here.

Regarding `COc1cc(NC2=NCC3(CN4CCC3CC4)N2)ncn1` (centres unmarked), the EC50 – broadly, the concentration giving half of the maximal effect – worked out at 875 nM. The EC50 (Table 1, activity class) fell in the range of 100 to 1000 nM.
